Laboratory results from US20090239949A1, “Polar Hydrophilic Prodrugs of Amphetamine and Other Stimulants and Processes for Making and Using the Same” (priority 2007, published 2009).

Assay: Oral pharmacokinetic study of hArg-Amp vs Lys-Amp, plasma d-amphetamine by ELISA (Example 12)
Details: oral gavage, […] d-amphetamine freebase equivalent, n=5

`C[C@@H](Cc1ccccc1)NC(=O)[C@@H](N)CCCCN=C(N)N.Cl.Cl` [hArg-Amp, l-homoarginine-d-amphetamine dihydrochloride] showed a Tmax of 4 h.
